This note sets out measurements from patent US7129351B2, “Pyrimido compounds having antiproliferative activity” (Hoffmann-La Roche Inc., priority 2002, dated 2006).

Sequences of proteins named here, by UniProt entry; tags and fusion partners are left off.
UniProt P12931, whole entry: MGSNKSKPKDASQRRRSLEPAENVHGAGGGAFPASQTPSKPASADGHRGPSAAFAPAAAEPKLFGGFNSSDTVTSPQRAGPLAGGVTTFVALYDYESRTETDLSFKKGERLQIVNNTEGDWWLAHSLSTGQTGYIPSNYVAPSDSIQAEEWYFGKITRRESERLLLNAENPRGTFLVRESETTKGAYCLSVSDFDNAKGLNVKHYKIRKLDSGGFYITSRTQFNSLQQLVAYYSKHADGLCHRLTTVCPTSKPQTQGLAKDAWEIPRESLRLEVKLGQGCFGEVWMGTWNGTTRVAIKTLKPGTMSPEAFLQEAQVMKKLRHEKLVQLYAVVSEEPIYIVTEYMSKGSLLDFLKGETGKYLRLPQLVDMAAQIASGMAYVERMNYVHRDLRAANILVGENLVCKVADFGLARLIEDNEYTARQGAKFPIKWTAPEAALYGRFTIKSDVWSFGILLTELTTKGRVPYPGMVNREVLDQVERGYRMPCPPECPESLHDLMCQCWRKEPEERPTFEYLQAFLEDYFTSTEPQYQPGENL

As usually defined, the IC50 is the concentration that gives 50% inhibition.

The assay has as its target Src (p60^c-src) (Homo sapiens, UniProt P12931). Nature of the assay: SRC-Inhibitor-Assay (homogenous time-resolved fluorescence kinase assay). The note with it: read-out: IC50 (μM) - Enzyme Inhibition Assay, Src; ATP 5 μM; enzyme 2.5 U/mL; pre-incubated 15 min at 15° C. From the text:
The activity of the compounds according to this invention as inhibitors for the src-family tyrosine kinases was shown by using the following assay.
SRC-Inhibitor-Assay Parameters:
whereby both peptides were synthesized by an optimized solid phase peptide synthesis protocol (Merrifield (1962) Fed. Proc. Fed. Amer. Soc Exp. Biol. 21, 412) on an Zinsser SMP350 peptide synthesizer. […] The identity was proven by MALDI mass spectroscopy [2720.0]. • Enzymes: Upstate Lck (p56^lck, active), Upstate Src (p60^c-src, partially purified) were purchased from UBI. • Homogenous, time-resolved Fluorescence Assay: Reader: Perkin Elmer, Wallac Viktor 1420-040 multilabel counter; Liquid handling system: Beckman Coulter, Biomek 2000. • ATP, Tween 20, HEPES were purchased from Roche Molecular Biochemicals, MgCl2 and MnCl2 were purchased from Merck Eurolab, TCEP was purchased from Pierce, 384 Well low volume fluorescence plates was purchased from Falcon. […]
At first the enzyme is pre-incubated for 15 min. at 15° C. in aqueous solution with corresponding amounts of inhibitors according to this invention. […] The proceeding of this reaction is immediately monitored using time resolved fluorescence spectroscopy in a suitable well plate reader. […]

Consider `CCN(CC)CCOc1ccc(Nc2ncc3c(n2)N(C)C(=O)N(c2ccccc2Br)C3C)cc1` (single isomer, unassigned), for which the half-inhibitory concentration (IC50) is under 1 µM.
